Experimental findings from BindingDB's records for US10053433, “Androgen receptor antagonists” (2018) are described below.

Chains of the proteins cited; added tags and fusions are not shown. Lines headed by an entry give the natural chain unless they say otherwise; changes in a name come on top.
UniProt P10275: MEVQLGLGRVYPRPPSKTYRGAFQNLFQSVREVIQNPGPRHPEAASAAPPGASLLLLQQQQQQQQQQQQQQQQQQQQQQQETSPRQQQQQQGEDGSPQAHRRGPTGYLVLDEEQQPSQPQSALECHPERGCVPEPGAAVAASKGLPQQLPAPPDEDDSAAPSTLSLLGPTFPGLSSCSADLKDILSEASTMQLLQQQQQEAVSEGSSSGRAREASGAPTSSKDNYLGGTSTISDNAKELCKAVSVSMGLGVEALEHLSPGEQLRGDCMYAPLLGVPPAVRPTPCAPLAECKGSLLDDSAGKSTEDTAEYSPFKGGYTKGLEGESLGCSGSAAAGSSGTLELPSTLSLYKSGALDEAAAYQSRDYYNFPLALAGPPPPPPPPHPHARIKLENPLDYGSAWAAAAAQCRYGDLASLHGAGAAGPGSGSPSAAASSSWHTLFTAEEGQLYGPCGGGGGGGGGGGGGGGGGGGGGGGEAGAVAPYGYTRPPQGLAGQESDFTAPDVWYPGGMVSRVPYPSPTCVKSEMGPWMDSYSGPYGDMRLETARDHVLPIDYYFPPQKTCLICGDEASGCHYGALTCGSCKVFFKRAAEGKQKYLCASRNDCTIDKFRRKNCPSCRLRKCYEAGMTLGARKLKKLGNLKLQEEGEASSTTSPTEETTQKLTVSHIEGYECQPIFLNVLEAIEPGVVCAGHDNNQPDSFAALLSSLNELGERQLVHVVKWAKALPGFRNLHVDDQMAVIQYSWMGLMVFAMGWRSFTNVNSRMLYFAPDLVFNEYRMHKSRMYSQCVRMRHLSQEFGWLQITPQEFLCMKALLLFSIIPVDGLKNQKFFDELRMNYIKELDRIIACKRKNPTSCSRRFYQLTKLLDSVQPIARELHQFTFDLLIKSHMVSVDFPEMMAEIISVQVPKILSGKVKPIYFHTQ

The assay concerns the target Androgen receptor (Homo sapiens, UniProt P10275). Description: Gal4-luciferase reporter assay. Particulars: pH 7.5.

pIC50: −log10 of the molar value.

As for `C[C@](O)(CS(=O)(=O)c1ccc(F)cc1)C(=O)Nc1ccc([N+](=O)[O-])c(C(F)(F)F)c1`, the pIC50 is 4.65.
